# Patent US8173653B2, “Pyridiazinone derivatives for the treatment of tumours” (Merck Patent Gesellschaft MIT Beschraenkter Haftung, priority 2005, dated 2012)
# Tested on: TPR-Met/NIH3T3 cells
# Assay: In-vivo test: subcutaneous TPR-Met/NIH3T3 tumour in Balb/C mice, tumour volume
# Conditions: female Balb/C mice, 200 mg/kg daily by gastric tube, 9 days
structure (smiles),measurement,value
"CN(C)CCCOC(=O)Nc1cccc(Cn2nc(-c3cc(F)cc(F)c3)ccc2=O)c1 [A56, 3-Dimethylaminopropyl {3-[3-(3,5-difluorophenyl)-6-oxo-6H-pyridazin-1-ylmethyl]phenyl}carbamate]",antitumoural action (tumour volume),significant antitumoural action
